Key:
FGFR2 = FGFR2 (Homo sapiens (Human), UniProt P21802); experiment: FGFR Enzymatic Assay (FGFR2); type: biochemical; details: read-out: FGFR2 IC50; enzyme 0.01 nM, ATP 100 μM;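 note: FRET read-out of peptide phosphorylation by the purified kinase, with enzyme-free blank and uninhibited enzyme as controls, potency from a variable-slope sigmoidal dose-response fit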
FGFR1 = FGFR1 (Homo sapiens (Human), UniProt P11362); experiment: FGFR Enzymatic Assay (FGFR1); type: biochemical; details: read-out: FGFR1 IC50; enzyme 0.02 nM, ATP 210 μM

Protein sequences, listed by entry. Tags and fused reporters are not part of them. Residues count along the entry.
UniProt P21802, 22-821 limits assumed: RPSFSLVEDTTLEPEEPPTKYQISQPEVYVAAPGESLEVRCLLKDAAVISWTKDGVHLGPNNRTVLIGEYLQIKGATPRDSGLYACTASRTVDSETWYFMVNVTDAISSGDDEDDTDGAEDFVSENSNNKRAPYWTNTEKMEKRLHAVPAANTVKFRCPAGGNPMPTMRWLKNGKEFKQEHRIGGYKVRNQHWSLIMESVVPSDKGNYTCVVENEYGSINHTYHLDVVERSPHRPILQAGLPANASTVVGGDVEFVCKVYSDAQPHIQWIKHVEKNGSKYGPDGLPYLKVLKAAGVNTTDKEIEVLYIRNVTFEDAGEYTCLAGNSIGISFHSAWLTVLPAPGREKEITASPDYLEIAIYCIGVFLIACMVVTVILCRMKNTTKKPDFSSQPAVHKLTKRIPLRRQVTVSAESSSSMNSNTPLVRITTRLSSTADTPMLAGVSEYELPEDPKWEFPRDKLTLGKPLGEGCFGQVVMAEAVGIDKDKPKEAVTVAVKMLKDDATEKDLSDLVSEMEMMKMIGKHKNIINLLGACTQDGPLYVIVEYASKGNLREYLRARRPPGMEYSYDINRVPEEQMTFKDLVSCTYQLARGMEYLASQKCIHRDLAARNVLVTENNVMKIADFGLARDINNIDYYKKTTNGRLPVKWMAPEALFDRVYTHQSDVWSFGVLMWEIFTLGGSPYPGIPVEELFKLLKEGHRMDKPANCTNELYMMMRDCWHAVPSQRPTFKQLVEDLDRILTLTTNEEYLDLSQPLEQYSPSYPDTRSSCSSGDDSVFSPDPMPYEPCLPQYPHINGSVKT
UniProt P11362, 22-822 limits assumed: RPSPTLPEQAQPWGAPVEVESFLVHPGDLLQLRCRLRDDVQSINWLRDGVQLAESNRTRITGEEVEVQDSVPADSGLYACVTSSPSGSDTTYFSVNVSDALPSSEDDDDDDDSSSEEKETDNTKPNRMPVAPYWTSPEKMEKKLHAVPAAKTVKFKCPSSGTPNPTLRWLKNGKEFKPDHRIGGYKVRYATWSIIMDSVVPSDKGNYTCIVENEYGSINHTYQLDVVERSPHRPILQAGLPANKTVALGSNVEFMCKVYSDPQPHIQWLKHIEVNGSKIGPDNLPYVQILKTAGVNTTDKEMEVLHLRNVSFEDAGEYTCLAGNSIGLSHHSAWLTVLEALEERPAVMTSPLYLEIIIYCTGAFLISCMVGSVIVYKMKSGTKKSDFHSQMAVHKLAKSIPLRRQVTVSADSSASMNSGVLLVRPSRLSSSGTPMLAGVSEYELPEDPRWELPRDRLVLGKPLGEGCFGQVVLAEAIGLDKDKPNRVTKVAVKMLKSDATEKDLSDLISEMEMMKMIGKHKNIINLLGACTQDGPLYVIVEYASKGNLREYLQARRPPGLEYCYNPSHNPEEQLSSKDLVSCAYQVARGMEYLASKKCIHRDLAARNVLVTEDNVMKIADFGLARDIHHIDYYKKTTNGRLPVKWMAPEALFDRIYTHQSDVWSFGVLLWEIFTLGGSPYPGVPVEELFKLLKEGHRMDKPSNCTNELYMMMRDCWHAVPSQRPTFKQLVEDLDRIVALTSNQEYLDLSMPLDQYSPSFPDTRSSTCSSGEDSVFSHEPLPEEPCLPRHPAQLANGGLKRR

IC50 (FGFR2): < 100 nM
IC50 (FGFR1): < 100 nM
Compound: COc1cc(CCc2cnc3[nH]c(-c4csc(C(=O)O)c4)cc3n2)cc(OC)c1

From patent publication US9745311B2, “Substituted pyrrolo[2,3-b]pyrazines as FGFR inhibitors” (Incyte Corporation, priority 2012, dated 2017)
